Measured affinities in a library of Ab-14 light chain variants

The measurements come from Li et al. 2023 (doi:10.1038/s41467-023-39022-2) through the FLAb antibody collection.

Antigen: PDVDLGDISGINAS, a 14-residue peptide of the SARS-CoV-2 spike HR2 region.

Parent scFv Ab-14: VH joined to VL by a (GGGGS)3 linker. Changes lie in the light chain CDRs alone.
VH: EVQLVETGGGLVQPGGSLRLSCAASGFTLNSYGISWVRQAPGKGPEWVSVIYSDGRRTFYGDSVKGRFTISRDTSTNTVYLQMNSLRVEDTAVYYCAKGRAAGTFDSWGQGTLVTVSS
VL: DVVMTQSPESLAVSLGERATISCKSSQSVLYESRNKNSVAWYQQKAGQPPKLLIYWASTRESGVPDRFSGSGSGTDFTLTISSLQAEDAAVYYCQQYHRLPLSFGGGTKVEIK

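The parent was found by panning a naive human phage display library on the peptide. Designed CDR sequences, proposed from the first random library and measured here. Their group label is 14L_En_Gibbs (En: ensemble of fine-tuned language models; Gibbs: Gibbs sampling). Affinity was read by AlphaSeq, a pooled yeast mating assay with surface-displayed partners. After mating in shaken culture at 30 °C for 16 h, diploids were selected and their barcode pairs sequenced. The ratio of observed to expected reads was calibrated, replicate by replicate, on BCL2-family standards whose Kd was known from biolayer interferometry. Each pool was mated in six replicate cultures.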

Each variant is given by its three light chain CDRs, as the data file delimits them; those of the parent are KSSQSVLYESRNKNSVA, WASTRES, QQYHRLPLS. Numbers give log10(Kd / nM), so 0 is 1 nM and 3 is 1 µM. Smaller is tighter. Where no diploid with the target was found in that replicate, the entry reads "nd": below detection, most likely a poor binder, though not proof of it. The range of this assay differs from that of the first round, and the authors advise against merging the two.

Variant SVTRETDENGLKMNSVA / DAAEAMT / QQYQRLPLT showed 1.49, -0.02, -0.03, -0.13, 0.17, 0.14 (controls 0 of 18).
Variant NMHNMCYQYENYGNSIA / QAQLREN / QQYSRLPFT showed 0.39, 0.26, 0.24, 0.14, 0.35, 0.24 (controls 2 of 18).
Variant KIQWYQLEMRDPGSAVA / EASVRYN / QQYMRLPLE showed nd, nd, 1.13, 1.26, nd, nd (controls 0 of 18).
Variant KMVKAKSEGDRHAANIA / NANKATD / QQYYRLPLA showed 0.55, 0.43, 0.55, 0.31, 0.58, 0.66 (controls 3 of 18).
Variant MLTNETDGNYGRNNSVA / NAEELMT / QAYFRLPIT showed 1.73, 1.61, 1.75, 1.74, 1.54, 1.81 (controls 0 of 18).
Variant NISIKEPGNWMMMDSVA / HSSLRAE / QQYWRLPLM showed 0.75, 0.31, 0.48, 0.28, 0.42, 0.55 (controls 1 of 18).
Variant NLNTYYYGGTLNTDNIA / HGNMVEA / QQYDRLPLS showed 0.41, 0.39, 0.36, 0.70, 0.67, 1.18 (controls 0 of 18).
Variant SLDMREEPYTALSGSVA / GSANRAI / QQYFRLPLS showed 0.03, 0.05, -0.16, -0.21, -0.02, 0.08 (controls 1 of 18).
Variant HMKDELGLGPQTYYSVA / HGSMREP / QDYYRLPLG showed 1.01, 1.42, 1.36, 1.51, 1.22, 1.50 (controls 0 of 18).
Variant LMNERMEMGENQQHSIA / NAAHLVH / QDYHRLPLG showed nd, nd, 2.35, 3.75, 3.62, nd (controls 0 of 18).
Variant KLTKYQYNATSHYQNVA / ESNKIME / QSYYRLPLS showed 2.88, 1.51, 2.56, 2.72, 3.03, 3.15 (controls 1 of 18).
Variant SVRHPFQGENGMKGSVA / NATIRDQ / QQYFRLPLF showed 0.42, 0.43, 0.24, 0.17, 0.36, 0.36 (controls 2 of 18).
Variant KLSPIYFDSYGNRQAVA / ENEATSN / QQYSLLPLS showed nd, nd, nd, nd, 1.73, nd (controls 0 of 18).
Variant HVPNYPENFRSAKDNIA / DTSATTS / QQYDRLPLA showed 0.75, 0.70, 0.29, 0.33, 0.46, 0.60 (controls 2 of 18).
Variant GVDHTMESGKQAPNSIA / NAEQLTI / QQYQRLPLS showed 0.54, 0.26, 0.35, 0.47, 0.38, 0.54 (controls 2 of 18).
Variant RVQIWSGHSDMHWKSIA / SASLRAQ / QQYARLPLE showed 1.23, 1.76, 1.21, 1.01, 0.89, 1.37 (controls 1 of 18).
Variant TLMHHQDRYDNWKKSIA / EAIIRES / QQYQRLPLA showed nd, nd, nd, 1.97, nd, 2.36 (controls 2 of 18).
Variant KLWYAMDMFQGEANAVA / DQQLTRE / QQYARLPLS showed nd, nd, nd, 2.09, nd, nd (controls 0 of 18).
Variant RMNKFMSGITEAKNSVA / GAEHRAQ / QSYHRLPLS showed 0.81, 1.45, nd, nd, 1.41, 1.16 (controls 0 of 18).
Variant TLYMGPTEARKDKHNIA / GMSEREE / QQYHLLPLV showed 1.10, 0.83, 0.49, 0.58, 0.76, 0.85 (controls 0 of 18).
Variant QIQMNEITLMENINSIA / NSEVIVQ / QSYFRLPLS showed 2.11, 1.46, 1.07, nd, nd, 1.23 (controls 0 of 18).
Variant TLMFDGEYSDKENYAIA / DAIQTQV / QQYVRLPLS showed 0.91, 0.47, 1.03, 0.60, 1.00, 0.86 (controls 0 of 18).
Variant HMNHEYLDYSNYENNIA / HGSQRLY / QQYSHLPLS showed 0.68, 0.37, 0.42, 0.21, 0.24, 0.27 (controls 1 of 18).
Variant KLWAYFQGLESKMQNVA / DGIYRST / QQYDRLPLS showed 1.18, 0.77, 1.13, 0.82, 1.04, 1.05 (controls 2 of 18).
Variant FMEMDFQENSGRGNSIA / SEEVKTR / QHYGRLPLS showed nd, nd, nd, nd, nd, nd (controls 1 of 18).
Variant KLSSLQFDSYMEKENVA / ESTQVFN / QQYHRLPLA showed 1.16, 1.71, 1.21, 1.60, 1.16, 1.81 (controls 1 of 18).
Variant HINGLEDQFPDSWNAIA / QETLRNL / QQYFSLPLS showed 1.21, 2.07, 1.85, 2.84, 3.17, 2.14 (controls 0 of 18).
Variant SLSNQETEQIQHANSIA / DRDEVDV / QQYAHLPLS showed 0.64, 0.75, 0.79, 0.57, 0.34, 0.70 (controls 0 of 18).
Variant QIDSFYQHGTDAKKAMA / DVSVRTQ / QQYSRLPLS showed 0.48, 0.78, -0.04, 0.13, 0.52, 0.31 (controls 1 of 18).
Variant KFEQWDFSQNRDDNSIA / HADDLVT / QQYSQLPLT showed 0.28, 0.35, 0.39, 0.34, 0.65, 0.70 (controls 0 of 18).
Variant KFFGGIPEFERDDYSIA / MGTLRET / QQYQRLPLS showed 1.75, 0.78, 1.32, 0.93, 0.77, 0.91 (controls 0 of 18).
Variant NIRIEDKSEHNNANNVA / STDCRCD / QQYFMLPLM showed 0.92, 0.69, 0.51, 0.58, 0.52, 0.81 (controls 3 of 18).
Variant KMNGYTLQPNMDHNNVA / HGTMKEA / QQYARIPLM showed 0.83, 0.30, 0.17, 0.15, -0.21, 0.34 (controls 0 of 18).
Variant KLVGVDDNDPNPSHNIA / DVSMLDN / QQYHRLPLD showed 1.96, 1.56, 4.22, 2.13, 2.36, 2.12 (controls 1 of 18).
Variant NLSGMVEEQETRQKNIA / EVEFRCM / QQYSRLPLS showed nd, nd, nd, nd, nd, nd (controls 1 of 18).
Variant VMQMQSDGMLNAKHNVA / GVDMRLE / QHYFRLPLL showed 0.41, 0.58, 1.03, 1.29, 0.74, 1.38 (controls 1 of 18).
Variant HMQNESQGDSRQWNNVA / ETTVVET / QQYATLPLT showed 1.19, 1.48, 1.46, 2.38, 1.70, 1.89 (controls 0 of 18).
Variant RVQLNSGHIDMHWYSIA / SASIRAD / QQYERLPLA showed 0.82, 0.61, 0.74, 0.61, 0.59, 0.94 (controls 1 of 18).
Variant SFPESLRQQQTNVNAVA / GAQHTAR / QQYGRLPLT showed 1.85, 1.29, 1.66, 1.27, 1.29, 1.87 (controls 0 of 18).
Variant MLQIEPNGYMGMRSNVA / DGVDVRM / QQYARLPLM showed 1.20, nd, nd, nd, nd, nd (controls 0 of 18).

The authors averaged sequences with at least three values out of six and counted those with two or fewer as poor binders. Background: pairings of all light chain designs with three empty control strains gave a value in 4% of cases (median 2.64, 5th percentile 1.59). Values in that range, when seen in few replicates, are hard to tell from nonspecific mating. The control count says in how many pairings with the empty strains this scFv gave a signal.